Where a name gives a salt, the structure may show the parent alone.
Test system: Wistar rats
Assay: Sleep and behavioral monitoring in rats (EEG, EMG, motion)
Conditions: rat, doses up to at least 1.2 mg/Kg

Cc1ccc2c(c1)Oc1sc(Cl)cc1C(N1CCN(CC(C)(C)C(=O)O)CC1)=N2 [Example 3, 3-[4-(2-chloro-8-methyl-thieno[2,3-b][1,5]benzoxazepin-4-yl)piperazin-1-yl]-2,2-dimethyl-propanoic acid dihydrochloride]
no undesired occurrences: undesired occurrences of REM inhibition | undesired occurrences of rebound insomnia | undesired occurrences of reduction in LMI

From patent US9481688B2, “(Thieno[2,3-b][1,5]benzoxazepin-4-yl)piperazin-1-yl compounds as dual activity H1 inverse agonists/5-HT2A antagonists” (Eli Lilly and Company, priority 2011, dated 2016)
